Results taken from ChEMBL document CHEMBL1156305, “Orally active and brain permeable proline amides as highly selective 5HT2c agonists for the treatment of obesity” (Bioorg Med Chem Lett, 2010).

Protein sequences, listed by entry. Tags and fused reporters are not part of them.
UniProt P28223, whole entry: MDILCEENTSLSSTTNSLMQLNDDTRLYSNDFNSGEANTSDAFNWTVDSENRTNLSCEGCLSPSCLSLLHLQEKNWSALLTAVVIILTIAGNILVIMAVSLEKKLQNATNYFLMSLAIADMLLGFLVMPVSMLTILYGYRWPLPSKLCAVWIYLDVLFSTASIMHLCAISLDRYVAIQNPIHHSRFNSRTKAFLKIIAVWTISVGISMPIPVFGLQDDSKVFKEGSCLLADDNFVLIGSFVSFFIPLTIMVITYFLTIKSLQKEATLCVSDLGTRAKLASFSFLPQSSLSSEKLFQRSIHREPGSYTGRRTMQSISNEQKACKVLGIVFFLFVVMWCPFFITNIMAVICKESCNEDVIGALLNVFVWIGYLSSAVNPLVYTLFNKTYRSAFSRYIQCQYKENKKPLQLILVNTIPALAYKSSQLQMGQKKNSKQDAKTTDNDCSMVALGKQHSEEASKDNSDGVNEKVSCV

Molecular target: 5-hydroxytryptamine receptor 2A (Homo sapiens, UniProt P28223)
Test: Agonist activity at 5HT2A receptor relative to control
Assay type: functional

Activity | SMILES
67% | COc1cc(OCC2CCCCC2)c(F)cc1CNC(=O)[C@@H]1CCCN1
99% | C[C@H]1CC[C@@H](Oc2c(F)cc(CNC(=O)[C@@H]3CCCN3)cc2F)CC1
